Results taken from ChEMBL document CHEMBL5726342, “NMDA receptor modulators and uses related thereto” (2017).

Assay: Inhibition Assay: Two-electrode voltage-clamp recordings were made from Xenopus laevis oocytes expressing recombinant rat GluN1/GluN2A, GluN1/GluN2B, GluN1/GluN2C, GluN1/GluN2D, GluA1, or GluK2 receptors following injection of 5-10 ng of cRNA synthesized according to manufacturers' protocols (Ambin, mMessage, mMachine). cDNAs used were rat GluN1-1a (GenBank accession numbers U11418 and U08261; hereafter GluN1), GluN2A (D13211), GluN2B (U11419), GluN2C (M91563), GluN2D (L31611), GluA1 (X17184), GluK2 (Z11548). The current under voltage-clamp was recorded during perfusion with recording solution containing (in mM) 90 NaCl, 1.0 KCl, 0.5 BaCl2, 0.005 EDTA, and 10 HEPES at pH 7.4 (23° C.). Glass micropipettes had resistances of 0.3-1.0 MS2 and were filled with 3.0 M KCl. The membrane potential was clamped at −40 mV during the experiment. Recordings were digitized at 10 Hz and analyzed off line. 20 mM stock solutions of test compounds in 100% DMSO were made and diluted to obtain the final concentration; final DMSO content was 0.05-0.5% (vol/vol). Oocytes expressing GluK2 homomeric receptors were first treated with 10 μM concanavalin A (10 minutes). NMDA receptor responses were obtained by challenging oocytes with 100 μM glutamate plus 30 μM glycine; GluA1 and GluK2 receptors responses were recorded during application of 100 μM glutamate. […]
Format: cell-based

SMILES: CC(=O)C1=C(O)C(=O)N(CCc2c[nH]c3ccccc23)C1c1ccc(C)cc1 (stereo unspecified)
- IC50: 24 µM
